Literature values as cited in article PMC8243516, “Inhibition of lysosomal phospholipase A2 predicts drug-induced phospholipidosis” (Journal of Lipid Research, 2021).

By UniProt entry, the sequences of proteins in these tests, tags left out. Where a name states a change or a piece, a line headed by the entry shows the natural chain unless it says otherwise.
UniProt Q8VEB4: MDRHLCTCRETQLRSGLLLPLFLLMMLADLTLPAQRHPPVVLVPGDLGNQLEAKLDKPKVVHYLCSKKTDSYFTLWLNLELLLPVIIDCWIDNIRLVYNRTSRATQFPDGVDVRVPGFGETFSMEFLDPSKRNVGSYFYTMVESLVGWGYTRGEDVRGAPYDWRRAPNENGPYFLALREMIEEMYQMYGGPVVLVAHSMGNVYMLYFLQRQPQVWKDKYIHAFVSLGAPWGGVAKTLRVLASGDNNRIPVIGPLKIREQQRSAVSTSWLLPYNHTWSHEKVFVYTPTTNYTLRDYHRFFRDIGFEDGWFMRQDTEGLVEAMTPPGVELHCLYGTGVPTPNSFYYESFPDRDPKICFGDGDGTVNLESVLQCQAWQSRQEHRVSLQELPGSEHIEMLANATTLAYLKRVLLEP

Target: LPLA2 (Mus musculus, UniProt Q8VEB4)
Details: covalent binding to catalytic serine; cited from earlier work

## methyl arachidonyl fluorophosphonate
  Increase of melting temperature of LPLA2: 12 °C
